ChEMBL document CHEMBL5154828 (J Med Chem, 2022)

Tested on: MCF7
Test: Antiproliferative activity against human MCF7 cells assessed as inhibition of cell growth measured after 6 days by cell titre glo luminescence assay
Settings: MCF7, 144 h

Row | Compound | IC50 [nM]
1 | COc1cc(Oc2c(-c3ccc(F)cc3C(C)(F)F)sc3c2ccc2[nH]ncc23)ccc1NC1CN(CCCF)C1 | 0.6
2 | CC(C)(F)c1cc(F)ccc1-c1sc2c(ccc3[nH]ncc32)c1Oc1ccc(NC2CN(CCCF)C2)cc1 | 1
3 | COc1cc(Oc2c(-c3ccc(F)cc3C(C)(C)F)sc3c2ccc2[nH]ncc23)ccc1NC1CN(CCCF)C1 | 0.7
